For this test, the target named is human enzyme NAMPT (full length) (Homo sapiens, UniProt P43490). Put plainly: NMN fluorescence biochemical assay (stimulation of NMN synthesis by NAMPT).

The chains behind the UniProt entries cited, without tags or fusion partners.
UniProt P43490, whole entry: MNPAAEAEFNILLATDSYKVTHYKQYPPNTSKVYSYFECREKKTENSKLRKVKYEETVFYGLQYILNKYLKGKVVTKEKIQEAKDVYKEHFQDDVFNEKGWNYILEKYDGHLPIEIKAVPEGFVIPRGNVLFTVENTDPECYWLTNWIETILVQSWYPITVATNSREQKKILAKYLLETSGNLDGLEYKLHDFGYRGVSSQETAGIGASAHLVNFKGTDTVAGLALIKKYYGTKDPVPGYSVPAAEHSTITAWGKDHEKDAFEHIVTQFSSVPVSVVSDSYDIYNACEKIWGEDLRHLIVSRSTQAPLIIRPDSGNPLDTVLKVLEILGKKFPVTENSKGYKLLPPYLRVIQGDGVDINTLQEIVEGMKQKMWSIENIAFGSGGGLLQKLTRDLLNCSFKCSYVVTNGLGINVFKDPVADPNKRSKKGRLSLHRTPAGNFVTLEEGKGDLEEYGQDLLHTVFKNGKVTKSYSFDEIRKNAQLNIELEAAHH

For the compound `O=C1NCC2(CCC(CN3C(=O)c4ccccc4C3Cc3ncccc3Br)CC2)O1` (single isomer, unassigned), the “Enzymatic Emax” value (fold change of maximal activation compared to DMSO) was “C (2≥C)”. Also, the EC50 (read-out: Enzymatic EC50, NMN fluorescence assay, purified human NAMPT 100 nM, concentration giving half-maximal activation) fell in the range of 500 to 5000 nM.

By EC50 is commonly meant the midpoint of the concentration-response curve.
